Measurements as given in patent US11208396B2, “Oxime compounds as agonists of the muscarinic M1 and/or M4 receptor” (Heptares Therapeutics Limited, priority 2015, dated 2021).

Protein sequences, listed by entry. Tags and fused reporters are not part of them.
UniProt P08173, whole entry: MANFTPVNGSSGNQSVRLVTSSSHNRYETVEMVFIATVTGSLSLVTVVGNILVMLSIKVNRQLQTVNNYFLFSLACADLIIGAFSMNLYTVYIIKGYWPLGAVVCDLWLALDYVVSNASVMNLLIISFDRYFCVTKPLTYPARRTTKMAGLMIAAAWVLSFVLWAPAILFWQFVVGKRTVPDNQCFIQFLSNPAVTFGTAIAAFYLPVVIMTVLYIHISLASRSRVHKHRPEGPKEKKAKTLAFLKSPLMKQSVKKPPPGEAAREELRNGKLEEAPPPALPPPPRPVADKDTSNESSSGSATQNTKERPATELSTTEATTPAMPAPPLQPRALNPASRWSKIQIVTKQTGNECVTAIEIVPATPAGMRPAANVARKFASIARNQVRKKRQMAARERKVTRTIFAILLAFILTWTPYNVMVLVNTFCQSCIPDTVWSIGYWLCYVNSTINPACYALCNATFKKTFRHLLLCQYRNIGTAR
UniProt P11229, whole entry: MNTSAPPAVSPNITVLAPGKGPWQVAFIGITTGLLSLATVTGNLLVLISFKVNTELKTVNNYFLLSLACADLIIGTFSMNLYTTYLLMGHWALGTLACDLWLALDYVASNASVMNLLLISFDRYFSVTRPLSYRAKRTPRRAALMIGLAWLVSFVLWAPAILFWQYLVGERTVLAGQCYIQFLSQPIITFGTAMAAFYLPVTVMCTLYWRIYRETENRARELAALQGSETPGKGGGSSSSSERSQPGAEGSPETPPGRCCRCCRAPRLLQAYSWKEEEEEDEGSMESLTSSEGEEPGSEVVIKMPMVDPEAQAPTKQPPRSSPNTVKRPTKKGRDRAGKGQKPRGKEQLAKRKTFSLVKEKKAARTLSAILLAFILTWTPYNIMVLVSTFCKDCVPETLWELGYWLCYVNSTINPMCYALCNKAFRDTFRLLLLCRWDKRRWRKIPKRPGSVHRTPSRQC

Assays:
[1] = target: human muscarinic M4 receptor (Homo sapiens, UniProt P08173); experiment: Alphascreen Surefire phospho-ERK1/2 functional assay, M4; type: cell-based; conditions: CHO cells stably expressing human M4
[2] = target: human muscarinic M1 receptor (Homo sapiens, UniProt P11229); experiment: Alphascreen Surefire phospho-ERK1/2 functional assay, M1; conditions: CHO cells stably expressing human M1

- % Emax cf. ACh, M4 ([1]; Emax compared with ACh): 89%
- pEC50 M4 ([1]; agonist 5 min, 37° C.): 7.0
- % Emax cf. ACh, M1 ([2]; Emax compared with ACh): 58%
- pEC50 M1 ([2]; agonist 5 min, 37° C.): 6.3
SMILES: CCON=C(CC)C1CCN(C2CCCN(C(=O)OCC)CC2)CC1 (single isomer, unassigned)
